For 2 molecules, IC50 results are on record in ChEMBL document CHEMBL1136432, “Discovery of potent imidazole and cyanophenyl containing farnesyltransferase inhibitors with improved oral bioavailability” (Bioorg Med Chem Lett, 2003).

Chains of the proteins cited; added tags and fusions are not shown.
UniProt P49355, whole entry, looked up: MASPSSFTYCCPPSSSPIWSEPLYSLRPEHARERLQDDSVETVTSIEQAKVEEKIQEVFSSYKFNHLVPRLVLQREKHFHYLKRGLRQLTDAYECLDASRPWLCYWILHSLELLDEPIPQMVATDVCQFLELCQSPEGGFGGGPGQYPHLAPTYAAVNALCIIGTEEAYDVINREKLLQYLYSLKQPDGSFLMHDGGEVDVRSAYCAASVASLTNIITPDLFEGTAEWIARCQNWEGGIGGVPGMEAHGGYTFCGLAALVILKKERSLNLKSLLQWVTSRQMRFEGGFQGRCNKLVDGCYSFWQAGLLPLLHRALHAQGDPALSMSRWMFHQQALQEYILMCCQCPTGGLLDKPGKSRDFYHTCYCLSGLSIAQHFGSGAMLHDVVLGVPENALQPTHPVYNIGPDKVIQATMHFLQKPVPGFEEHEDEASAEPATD

The experiment concerns the target Protein farnesyltransferase (Bos taurus, UniProt P29702+P49355). Put plainly: Inhibition of transfer of [3H]FPP to biotin K-ras peptide (KKSKTKCVIM) catalyzed by bovine FTase. It is filed as protein-complex assay.

Each structure is given as a SMILES string. pIC50: −log10 of the molar value.

As for `Cn1cncc1C(OCc1nc(Cl)c(C#N)cc1-c1cccc(Cl)c1)c1ccc(C#N)cc1` (configuration not stated), the pIC50 (in general, the IC50 on a negative log10 scale, so that one unit is a factor of ten) was 9.05.

`Cn1cncc1C(OCc1nc(N2CCN(C(=O)OC(C)(C)C)CC2)c(C#N)cc1-c1cccc(Cl)c1)c1ccc(C#N)cc1` (configuration not stated): the pIC50 was 9.00.
